Assay results as given in PMC10960945, “A nanobody inhibitor of Fascin-1 actin-bundling activity and filopodia formation” (Open Biology, 2024).

Biological target: Fascin-1 1-493 (full-length human Fascin-1 WT, untagged) (human, UniProt Q16658)
Assay: cell-based or functional assay

percentage inhibition of Fascin-1 F-actin-bundling (co-sedimentation, densitometry of SDS-PAGE gels), titration of the Nb 3E11 : Fascin-1 molar ratio; the pair blocked is Fascin-1 with F-actin: 100%
B1: Nb 3E11 (VHH)
VHH: QVQLQESGGGLVQAGGSLRLSCAASGRIFSSTRMGWFRQAPGKDREFIASIVWGTTTTYYVDSVKGRFTISRDNAKNMVFLQMNSLKPEDTAVYYCAAKIYYSGTYLAFNPDYWGQGTQVTVSS
